Key:
[1] = Dissociation constant, pKa of the compound at pH 4.5 to 11 by UV-vis spectrophotometric analysis
[2] = Stability of compound in PBS at 1 mg/ml for 8 hrs by UHPLC analysis; conditions: buffer
[3] = Stability of compound in unionized water at 1 mg/ml for 8 hrs by UHPLC analysis; conditions: buffer
[4] = Antioxidant activity assessed as DPPH radical scavenging activity incubated for 1 hrs under dark condition by DPPH assay

| SMILES | pKa [1] | Stability [2] | Stability [3] | EC50 [4] [µM] |
| --- | --- | --- | --- | --- |
| NC(=O)c1cc[n+](C/C=C/C[n+]2ccc(/C=N/O)c(F)c2)cc1.[Br-].[Br-] | 7.75 | – | – | – |
| NC(=O)c1cc[n+](C/C=C/C[n+]2cc(F)c(/C=N/O)c(F)c2)cc1.[Br-].[Br-] | 7.26 | – | – | – |
| NC(=O)c1cc[n+](CCC[n+]2ccc(/C=N/O)c(Cl)c2)cc1.[Br-].[Br-] | – | Unstable | Stable | – |
| NC(=O)c1cc[n+](CCCC[n+]2cc(F)c(/C=N/O)c(F)c2)cc1.[Br-].[Br-] | 7.29 | – | – | – |
| NC(=O)c1cc[n+](CCC[n+]2ccc(/C=N/O)c(F)c2)cc1.[Br-].[Br-] | 7.76 | Unstable | Stable | – |
| NC(=O)c1cc[n+](CCC[n+]2cc(F)c(/C=N/O)c(F)c2)cc1.[Br-].[Br-] | 7.26 | Unstable | Stable | – |
| NC(=O)c1cc[n+](CCCC[n+]2ccc(/C=N/O)c(F)c2)cc1.[Br-].[Br-] | 7.78 | – | – | – |
| Cc1c(C)c2c(c(C)c1O)CCC(C)(C(=O)O)O2 (stereo not drawn) | – | – | – | 50 |

— ChEMBL document CHEMBL5113391, “Halogen substituents enhance oxime nucleophilicity for reactivation of cholinesterases inhibited by nerve agents” (2022)
